Assay results: US20140209542A1, “EXTRACORPOREAL CLEARANCE OF ORGANOPHOSPHATES FROM BLOOD ON AN ACOUSTIC SEPARATION DEVICE” (published 2014)

Experiment: Calculated contrast factors of encapsulated fluids and blood factors
Settings: when suspended in blood; calculated from density and bulk modulus

Compound	calculated contrast factor
OCC(O)CO	+0.73
air	−3.55
